{"source": "patent US11584800B2", "about": "“Method of treating cancer comprising administration of anti-HER2 antibody-drug conjugate” (DAIICHI SANKYO COMPANY, LIMITED, priority 2014, dated 2023)", "key": {"[1]": {"tested_on": "esophageal cancer CTG-0137 tumor highly expressing HER2", "experiment": "Antitumor test (11), patient-derived esophageal cancer CTG-0137 in nude mice", "format": "in vivo, nude mouse", "conditions": "10 mg/kg intravenously on Day 0; HER2 score 3+; FIG. 13", "source_text": "(§1) Mouse: 5- to 8-week-old female nude mice (Harlan Laboratories Ltd.) were subjected to the experiment.\n(§2) The calculation expression is as shown below. Tumor volume(mm^3)=0.52×Major axis (mm)×[Minor axis (mm)]^2\nTumor (CTG-0137; Champions Oncology Inc.) excised from an esophageal cancer patient and maintained at several passages by transplantation to female nude mice was used in this test. This tumor highly expressed HER2 (which received a score of 3+ in immunohistochemical staining).\n(§3) A tumor section of the solid tumor was subcutaneously transplanted to the left side of the body of each female nude mouse, and the mice were randomly grouped when the tumor volume reached 100 to 300 mm^3. The date of grouping was defined as Day 0. […] An acetate buffer solution administration group was established as a control group."}, "[2]": {"tested_on": "non-small cell lung cancer CTG-0860 tumor moderately expressing HER2", "experiment": "Antitumor test (9), patient-derived non-small cell lung cancer CTG-0860 in nude mice", "format": "in vivo, nude mouse", "conditions": "10 mg/kg intravenously on Day 0; HER2 score 2+; FIG. 11", "source_text": "as §1, §2\nTumor (CTG-0860; Champions Oncology Inc.) excised from a non-small cell lung cancer patient and maintained at several passages by transplantation to female nude mice was used in this test. This tumor moderately expressed HER2 (which received a score of 2+ in immunohistochemical staining).\nas §3"}, "[3]": {"tested_on": "breast cancer ST910 tumor low expressing HER2", "experiment": "Antitumor test (7), patient-derived breast cancer ST910 in nude mice", "format": "in vivo, nude mouse", "conditions": "10 mg/kg intravenously on Day 0; HER2 score 1+; FIG. 9", "source_text": "as §2\n(§4) Tumor (ST910; START) excised from a breast cancer patient and maintained at several passages by transplantation to female nude mice was used in this test. This tumor low expressed HER2 (which received a score of 1+ in immunohistochemical staining).\nas §3, with “the” for “the left”"}, "[4]": {"tested_on": "bile duct cancer CTG-0927 tumor highly expressing HER2", "experiment": "Antitumor test (10), patient-derived bile duct cancer CTG-0927 in nude mice", "format": "in vivo, nude mouse", "conditions": "10 mg/kg intravenously on Day 0; HER2 score 3+; FIG. 12", "source_text": "as §1, §2\nTumor (CTG-0927; Champions Oncology Inc.) excised from a bile duct cancer patient and maintained at several passages by transplantation to female nude mice was used in this test. This tumor highly expressed HER2 (which received a score of 3+ in immunohistochemical staining).\nas §3"}, "KPL-4 cells": {"tested_on": "KPL-4 cells", "format": "in vivo, nude mouse", "source_text": "The calculation expression is as shown below.\nAn untreated group was established as a control group."}, "[5]": {"tested_on": "Human breast cancer line JIMT-1 cells", "conditions": "mouse, in vivo"}, "[6]": {"tested_on": "breast cancer ST225 tumor moderately expressing HER2", "experiment": "Antitumor test (6), patient-derived breast cancer ST225 in nude mice", "format": "in vivo, nude mouse", "conditions": "10 mg/kg intravenously on Day 0; HER2 score 2+; FIG. 8", "experimental": "This test was carried out by the following method.\nas §2\nas §4, with “(ST225; South Texas Accelerated Research Therapeutics (START))” for “(ST910; START)”, “moderately” for “low”, “2+” for “1+”\nas §3, with “the” for “the left”"}, "[7]": {"tested_on": "colorectal cancer CTG-0401 tumor low or moderately expressing HER2", "experiment": "Antitumor test (8), patient-derived colorectal cancer CTG-0401 in nude mice", "format": "in vivo, nude mouse", "conditions": "10 mg/kg intravenously on Day 0; HER2 score 1+ or 2+; FIG. 10", "experimental": "This test was carried out by the following procedure. Evaluation Examples 11 to 13 were also carried out by this procedure.\nas §1, §2\nTumor (CTG-0401; Champions Oncology Inc.) excised from a colorectal cancer patient and maintained at several passages by transplantation to female nude mice was used in this test. This tumor low or moderately expressed HER2 (which received a score of 1+ or 2+ in immunohistochemical staining).\nas §3"}}}
{"substance": "trastuzumab: humanized anti-HER2 antibody; heavy chain residues 1 to 449 of SEQ ID NO: 1, light chain residues 1 to 214 of SEQ ID NO: 2", "values": [{"measurement": "growth of the esophageal cancer CTG-0137 tumor (tumor volume)", "setting": "[1]", "value": "did not inhibit the growth"}, {"measurement": "growth of the non-small cell lung cancer CTG-0860 tumor (tumor volume)", "setting": "[2]", "value": "did not inhibit the growth"}, {"measurement": "growth of the breast cancer ST910 tumor (tumor volume)", "setting": "[3]", "value": "did not inhibit the growth"}, {"measurement": "growth of the bile duct cancer CTG-0927 tumor (tumor volume)", "setting": "[4]", "value": "did not inhibit the growth"}, {"measurement": "tumor growth inhibitory effect (tumor volume), KPL-4", "setting": "KPL-4 cells; 10 mg/kg intravenously at Days 15 and 22, FIG. 3", "value": "inhibited tumor growth"}, {"measurement": "notable signs such as weight loss of mice, KPL-4 test", "setting": "KPL-4 cells; mouse, in vivo", "value": "free from notable signs such as weight loss"}, {"measurement": "weight loss of the mice, JIMT-1 test", "setting": "[5]", "value": "free from weight loss of the mice"}, {"measurement": "growth of the breast cancer ST225 tumor (tumor volume)", "setting": "[6]", "value": "did not inhibit the growth"}, {"measurement": "growth of the colorectal cancer CTG-0401 tumor (tumor volume)", "setting": "[7]", "value": "did not inhibit the growth"}]}
